Results on one molecule are retold here after ChEMBL document CHEMBL3576868 (J Med Chem, 2015).

Protein sequences, listed by entry. Tags and fused reporters are not part of them. Residues count along the entry.
UniProt P06865, 23-529 G269S limits assumed: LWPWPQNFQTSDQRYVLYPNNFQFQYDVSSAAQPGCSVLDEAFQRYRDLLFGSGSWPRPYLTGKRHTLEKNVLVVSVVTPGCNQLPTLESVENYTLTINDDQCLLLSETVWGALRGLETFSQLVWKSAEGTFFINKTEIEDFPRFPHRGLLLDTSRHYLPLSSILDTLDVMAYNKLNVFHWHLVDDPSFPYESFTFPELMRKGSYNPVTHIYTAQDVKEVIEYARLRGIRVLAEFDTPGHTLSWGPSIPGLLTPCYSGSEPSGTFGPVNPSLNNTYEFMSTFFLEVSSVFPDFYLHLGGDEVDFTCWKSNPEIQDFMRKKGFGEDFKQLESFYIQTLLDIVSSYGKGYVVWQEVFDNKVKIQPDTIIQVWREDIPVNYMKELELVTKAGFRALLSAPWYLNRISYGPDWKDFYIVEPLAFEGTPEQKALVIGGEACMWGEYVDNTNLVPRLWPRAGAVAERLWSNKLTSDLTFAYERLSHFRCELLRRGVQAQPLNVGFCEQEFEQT

The target in the assay is Beta-hexosaminidase subunit alpha (Homo sapiens, UniProt P06865, G269S). Description: Inhibition of HexA alpha G269S mutant in ATSD patient fibroblasts using MUGS substrate incubated for 1 to 2 hrs at pH 4.5 by spectrofluorometry.

As usually defined, the IC50 is the concentration that gives 50% inhibition. Molecule `CCc1nc(N)nc(N)c1-c1ccc(Cl)cc1` [PYRIMETHAMINE] displayed an IC50 of 8.5 µM.
